The test deals with GABA-A receptor; anion channel (Rattus norvegicus) (UniProt O09028+P15431+P18506+P18508+P19969+P20236+P23574+P23576+P28471+P28473+P30191+P62813+P63079+P63138+Q91ZM7+Q9ES14).

Amino acid sequences for entries named in this document (tags omitted). A change or cut given only in a name is not applied to a line headed by its entry.
UniProt O09028: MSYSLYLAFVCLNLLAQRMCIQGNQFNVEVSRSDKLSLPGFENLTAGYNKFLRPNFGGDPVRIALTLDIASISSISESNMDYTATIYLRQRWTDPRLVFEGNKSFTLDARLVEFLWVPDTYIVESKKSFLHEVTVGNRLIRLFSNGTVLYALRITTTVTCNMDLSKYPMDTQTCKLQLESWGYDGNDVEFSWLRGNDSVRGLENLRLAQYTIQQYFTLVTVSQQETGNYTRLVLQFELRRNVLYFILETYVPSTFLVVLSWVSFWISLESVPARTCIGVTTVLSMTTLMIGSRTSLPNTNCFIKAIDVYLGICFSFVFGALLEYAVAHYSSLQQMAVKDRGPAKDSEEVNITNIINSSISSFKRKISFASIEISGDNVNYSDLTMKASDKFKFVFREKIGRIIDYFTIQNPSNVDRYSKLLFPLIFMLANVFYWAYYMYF
UniProt P15431: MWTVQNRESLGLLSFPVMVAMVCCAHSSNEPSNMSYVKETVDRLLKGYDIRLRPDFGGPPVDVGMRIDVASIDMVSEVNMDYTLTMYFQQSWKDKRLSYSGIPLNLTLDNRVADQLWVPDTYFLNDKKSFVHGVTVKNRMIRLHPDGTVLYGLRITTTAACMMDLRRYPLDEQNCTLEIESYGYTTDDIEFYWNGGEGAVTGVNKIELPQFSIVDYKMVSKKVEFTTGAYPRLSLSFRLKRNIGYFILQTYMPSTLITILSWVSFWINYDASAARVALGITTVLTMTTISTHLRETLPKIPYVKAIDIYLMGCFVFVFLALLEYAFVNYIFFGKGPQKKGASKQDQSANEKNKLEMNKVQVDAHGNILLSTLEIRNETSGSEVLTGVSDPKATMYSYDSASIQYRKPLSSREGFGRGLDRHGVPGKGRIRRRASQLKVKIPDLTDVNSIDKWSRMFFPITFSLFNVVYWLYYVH
UniProt P18506: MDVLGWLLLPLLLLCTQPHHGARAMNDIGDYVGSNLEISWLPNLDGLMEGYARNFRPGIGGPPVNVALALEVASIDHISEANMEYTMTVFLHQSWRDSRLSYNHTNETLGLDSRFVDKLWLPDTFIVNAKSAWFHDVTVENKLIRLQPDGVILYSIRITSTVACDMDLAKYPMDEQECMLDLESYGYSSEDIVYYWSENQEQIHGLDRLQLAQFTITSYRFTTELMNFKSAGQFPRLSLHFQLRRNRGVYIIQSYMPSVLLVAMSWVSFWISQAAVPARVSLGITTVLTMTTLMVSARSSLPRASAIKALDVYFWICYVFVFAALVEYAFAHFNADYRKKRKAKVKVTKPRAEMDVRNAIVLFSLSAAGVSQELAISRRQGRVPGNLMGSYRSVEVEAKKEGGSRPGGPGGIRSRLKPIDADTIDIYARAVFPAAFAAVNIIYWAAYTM
UniProt P18508: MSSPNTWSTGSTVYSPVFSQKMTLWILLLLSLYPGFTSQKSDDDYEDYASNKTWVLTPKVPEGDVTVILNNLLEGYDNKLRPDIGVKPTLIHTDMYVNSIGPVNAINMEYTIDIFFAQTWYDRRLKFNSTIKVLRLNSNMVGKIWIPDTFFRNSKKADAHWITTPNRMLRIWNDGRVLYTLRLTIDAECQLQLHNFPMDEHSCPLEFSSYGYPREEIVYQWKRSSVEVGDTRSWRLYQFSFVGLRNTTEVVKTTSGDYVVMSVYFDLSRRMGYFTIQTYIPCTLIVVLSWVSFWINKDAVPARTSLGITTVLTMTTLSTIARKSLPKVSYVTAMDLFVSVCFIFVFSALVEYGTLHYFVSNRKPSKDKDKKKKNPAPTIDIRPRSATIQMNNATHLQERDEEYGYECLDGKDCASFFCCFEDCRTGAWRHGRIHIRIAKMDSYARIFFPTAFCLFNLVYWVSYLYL
UniProt P19969: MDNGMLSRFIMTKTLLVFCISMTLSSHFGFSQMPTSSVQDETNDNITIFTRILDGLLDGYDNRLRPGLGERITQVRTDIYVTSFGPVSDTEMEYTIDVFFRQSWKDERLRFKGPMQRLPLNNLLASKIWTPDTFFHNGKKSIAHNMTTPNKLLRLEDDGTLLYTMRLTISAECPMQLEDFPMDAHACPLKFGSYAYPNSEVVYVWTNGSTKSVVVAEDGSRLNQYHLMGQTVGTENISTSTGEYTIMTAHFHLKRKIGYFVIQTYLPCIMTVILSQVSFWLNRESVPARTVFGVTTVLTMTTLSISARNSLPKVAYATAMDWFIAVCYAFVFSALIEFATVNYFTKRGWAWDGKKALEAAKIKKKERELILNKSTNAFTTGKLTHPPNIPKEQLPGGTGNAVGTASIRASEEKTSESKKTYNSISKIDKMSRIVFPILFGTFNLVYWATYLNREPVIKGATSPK
UniProt P20236: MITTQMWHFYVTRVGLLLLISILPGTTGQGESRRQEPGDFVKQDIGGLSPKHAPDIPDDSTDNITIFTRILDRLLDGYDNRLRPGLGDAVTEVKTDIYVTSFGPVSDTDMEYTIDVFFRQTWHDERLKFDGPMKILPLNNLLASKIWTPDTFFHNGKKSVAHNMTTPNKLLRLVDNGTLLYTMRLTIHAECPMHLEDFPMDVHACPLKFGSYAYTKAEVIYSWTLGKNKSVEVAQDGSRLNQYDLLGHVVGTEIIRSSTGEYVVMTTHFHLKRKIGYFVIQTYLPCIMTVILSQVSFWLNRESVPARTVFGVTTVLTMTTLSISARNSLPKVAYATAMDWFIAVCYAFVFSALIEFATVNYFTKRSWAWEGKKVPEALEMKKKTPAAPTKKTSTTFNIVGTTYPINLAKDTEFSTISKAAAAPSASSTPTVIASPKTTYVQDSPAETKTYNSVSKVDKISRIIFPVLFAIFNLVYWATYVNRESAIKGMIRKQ
UniProt P23574: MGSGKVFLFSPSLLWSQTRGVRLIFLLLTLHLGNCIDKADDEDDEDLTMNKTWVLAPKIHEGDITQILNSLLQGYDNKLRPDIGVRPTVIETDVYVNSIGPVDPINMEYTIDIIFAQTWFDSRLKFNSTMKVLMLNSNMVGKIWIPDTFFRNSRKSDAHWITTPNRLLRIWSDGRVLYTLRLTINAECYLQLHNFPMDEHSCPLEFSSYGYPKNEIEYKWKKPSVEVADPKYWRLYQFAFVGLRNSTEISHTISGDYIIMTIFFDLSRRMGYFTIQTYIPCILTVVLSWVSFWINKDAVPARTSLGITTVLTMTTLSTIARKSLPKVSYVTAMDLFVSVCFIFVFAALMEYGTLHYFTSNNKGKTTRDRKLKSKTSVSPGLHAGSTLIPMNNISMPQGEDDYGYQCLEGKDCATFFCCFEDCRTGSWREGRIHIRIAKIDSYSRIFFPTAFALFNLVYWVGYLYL
UniProt P28471: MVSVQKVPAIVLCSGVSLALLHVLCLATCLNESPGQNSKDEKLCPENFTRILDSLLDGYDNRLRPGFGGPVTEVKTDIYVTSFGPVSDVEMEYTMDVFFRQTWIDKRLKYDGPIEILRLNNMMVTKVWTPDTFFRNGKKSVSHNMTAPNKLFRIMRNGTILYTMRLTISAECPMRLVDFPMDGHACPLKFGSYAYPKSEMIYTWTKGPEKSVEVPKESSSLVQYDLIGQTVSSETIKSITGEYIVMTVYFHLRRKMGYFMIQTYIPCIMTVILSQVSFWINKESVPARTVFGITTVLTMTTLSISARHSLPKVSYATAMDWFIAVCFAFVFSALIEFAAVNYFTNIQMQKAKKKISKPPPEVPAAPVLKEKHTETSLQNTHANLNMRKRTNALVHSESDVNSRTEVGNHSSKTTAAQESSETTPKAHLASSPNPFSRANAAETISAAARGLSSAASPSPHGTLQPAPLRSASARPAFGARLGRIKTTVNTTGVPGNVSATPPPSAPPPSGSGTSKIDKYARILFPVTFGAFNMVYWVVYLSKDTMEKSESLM
UniProt P28473: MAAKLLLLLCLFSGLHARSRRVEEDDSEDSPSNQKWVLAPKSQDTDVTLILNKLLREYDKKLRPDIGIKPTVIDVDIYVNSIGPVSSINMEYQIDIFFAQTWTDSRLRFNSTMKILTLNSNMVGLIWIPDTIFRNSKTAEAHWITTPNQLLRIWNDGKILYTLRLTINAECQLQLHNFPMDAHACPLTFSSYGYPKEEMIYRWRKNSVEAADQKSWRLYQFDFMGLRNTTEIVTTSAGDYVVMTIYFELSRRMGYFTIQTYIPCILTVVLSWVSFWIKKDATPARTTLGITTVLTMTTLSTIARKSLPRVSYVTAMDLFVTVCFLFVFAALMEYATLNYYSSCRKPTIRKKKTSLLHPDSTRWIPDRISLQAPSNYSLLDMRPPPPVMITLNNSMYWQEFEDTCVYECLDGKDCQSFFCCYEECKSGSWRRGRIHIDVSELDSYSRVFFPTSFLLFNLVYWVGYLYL
UniProt P30191: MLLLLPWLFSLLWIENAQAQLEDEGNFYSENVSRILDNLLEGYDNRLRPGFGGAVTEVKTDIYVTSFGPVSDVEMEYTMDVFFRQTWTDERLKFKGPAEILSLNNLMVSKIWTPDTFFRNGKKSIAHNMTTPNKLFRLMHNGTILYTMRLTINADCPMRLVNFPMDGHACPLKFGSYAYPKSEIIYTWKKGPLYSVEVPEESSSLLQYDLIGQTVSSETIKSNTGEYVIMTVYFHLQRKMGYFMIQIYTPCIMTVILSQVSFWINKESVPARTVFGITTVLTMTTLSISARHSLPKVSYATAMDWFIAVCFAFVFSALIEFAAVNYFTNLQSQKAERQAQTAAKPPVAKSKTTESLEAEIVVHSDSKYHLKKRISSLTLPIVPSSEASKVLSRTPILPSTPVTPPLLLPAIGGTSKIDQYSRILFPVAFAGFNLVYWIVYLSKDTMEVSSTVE
UniProt P62813: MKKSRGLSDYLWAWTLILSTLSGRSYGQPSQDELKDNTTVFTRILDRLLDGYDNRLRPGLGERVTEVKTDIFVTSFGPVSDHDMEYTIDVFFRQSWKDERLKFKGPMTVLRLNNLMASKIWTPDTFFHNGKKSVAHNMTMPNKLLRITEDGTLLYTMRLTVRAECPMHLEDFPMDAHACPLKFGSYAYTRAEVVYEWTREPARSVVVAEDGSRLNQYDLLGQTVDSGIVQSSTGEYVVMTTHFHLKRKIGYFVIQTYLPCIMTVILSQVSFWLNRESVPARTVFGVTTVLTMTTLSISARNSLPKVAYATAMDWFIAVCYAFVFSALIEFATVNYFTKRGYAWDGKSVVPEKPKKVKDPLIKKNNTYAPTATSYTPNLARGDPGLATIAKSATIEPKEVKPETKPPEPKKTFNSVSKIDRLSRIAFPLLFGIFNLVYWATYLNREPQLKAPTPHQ
UniProt P63138: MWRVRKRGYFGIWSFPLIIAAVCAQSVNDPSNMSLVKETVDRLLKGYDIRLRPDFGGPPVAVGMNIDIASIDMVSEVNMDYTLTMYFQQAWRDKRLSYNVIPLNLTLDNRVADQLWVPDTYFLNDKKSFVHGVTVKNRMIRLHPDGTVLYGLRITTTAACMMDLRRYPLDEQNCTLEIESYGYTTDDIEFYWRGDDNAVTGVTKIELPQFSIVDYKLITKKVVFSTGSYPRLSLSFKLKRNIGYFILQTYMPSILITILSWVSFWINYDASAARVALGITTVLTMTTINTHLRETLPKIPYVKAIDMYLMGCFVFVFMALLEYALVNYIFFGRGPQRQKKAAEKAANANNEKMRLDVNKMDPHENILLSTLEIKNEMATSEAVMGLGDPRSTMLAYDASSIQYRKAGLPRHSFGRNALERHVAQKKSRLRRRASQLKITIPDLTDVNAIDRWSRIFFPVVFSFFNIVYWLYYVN
UniProt Q9ES14: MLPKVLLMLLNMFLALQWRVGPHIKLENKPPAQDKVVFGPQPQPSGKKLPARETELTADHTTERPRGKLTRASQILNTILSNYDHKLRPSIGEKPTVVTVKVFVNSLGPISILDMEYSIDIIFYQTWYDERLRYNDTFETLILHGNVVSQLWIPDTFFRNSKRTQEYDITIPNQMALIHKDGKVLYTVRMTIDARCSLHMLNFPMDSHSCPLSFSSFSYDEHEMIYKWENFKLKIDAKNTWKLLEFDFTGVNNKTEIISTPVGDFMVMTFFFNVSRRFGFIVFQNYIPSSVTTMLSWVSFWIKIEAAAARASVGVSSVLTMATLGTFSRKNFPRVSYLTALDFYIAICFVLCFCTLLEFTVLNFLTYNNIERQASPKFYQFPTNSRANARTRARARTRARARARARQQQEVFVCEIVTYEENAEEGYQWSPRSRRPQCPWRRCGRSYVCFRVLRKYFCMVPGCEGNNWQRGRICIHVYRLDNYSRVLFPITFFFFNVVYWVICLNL

`CC(C)n1c(=O)c2c(-c3noc(C4CC4)n3)ncn2c2ccccc21` [PANADIPLON]: the TBPS shift is 0.06.

Values taken from ChEMBL document CHEMBL1129651, “3-Phenyl-substituted imidazo[1,5-alpha]quinoxalin-4-ones and imidazo[1,5-alpha]quinoxaline ureas that have high affinity at the GABAA/benzodiazepine receptor complex” (J Med Chem, 1996).
